Values of other authors, collected in patent US20090060925A1, “Rage Fusion Proteins and Methods of Use” (THE TRUSTEES OF COLUMBIA UNIVERSITY IN THE CITY OF, priority 2004, published 2009).

Settings: cited from earlier work

sRAGE: RAGE protein that does not include the transmembrane region or the cytoplasmic tail; species not printed at the results [reference compound]
half-life in human plasma, in words: only a few hours
